According to ChEMBL document CHEMBL4819091, “Identification of novel gankyrin binding scaffolds by high throughput virtual screening” (Bioorg Med Chem Lett, 2021):

Molecular target: T1, 26S proteasome non-ATPase regulatory subunit 10 (Homo sapiens) (UniProt O75832)
T1 sequence (whole entry): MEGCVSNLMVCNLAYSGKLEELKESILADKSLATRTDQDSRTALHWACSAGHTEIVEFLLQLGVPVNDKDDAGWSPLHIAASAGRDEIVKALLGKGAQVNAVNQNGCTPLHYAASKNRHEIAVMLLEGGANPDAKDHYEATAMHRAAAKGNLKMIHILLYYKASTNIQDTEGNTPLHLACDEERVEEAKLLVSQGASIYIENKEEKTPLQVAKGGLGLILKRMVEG
Assay: Potency index, ratio of deltaTm of compound to deltaTm of Cjoc42 for binding affinity to recombinant human His-tagged gankyrin expressed in Escherichia coli at 300 uM by SYPRO orange dye based thermal shift assay

SMILES | Ratio
O=C(O)COc1ccc(CC(=O)O)cc1-c1cc(-c2ccc(Cl)cc2)n(CCc2ccccc2)n1 | 4
O=C(O)CN(Cc1ccc(Cl)cc1)C(=O)c1cnc(N2CCC[C@H]2COc2ccc(Cl)cc2)nc1CCc1ccccc1 | 16
